Measured values: article PMC6323793, “Shikonin inhibits cancer cell cycling by targeting Cdc25s” (BMC Cancer, 2019)

Molecular target: T1, recombinant human Cdc25B (Homo sapiens, UniProt P30305)
T1 construct: purchased CycLex CY-1353
T1 sequence (P30305 1-580): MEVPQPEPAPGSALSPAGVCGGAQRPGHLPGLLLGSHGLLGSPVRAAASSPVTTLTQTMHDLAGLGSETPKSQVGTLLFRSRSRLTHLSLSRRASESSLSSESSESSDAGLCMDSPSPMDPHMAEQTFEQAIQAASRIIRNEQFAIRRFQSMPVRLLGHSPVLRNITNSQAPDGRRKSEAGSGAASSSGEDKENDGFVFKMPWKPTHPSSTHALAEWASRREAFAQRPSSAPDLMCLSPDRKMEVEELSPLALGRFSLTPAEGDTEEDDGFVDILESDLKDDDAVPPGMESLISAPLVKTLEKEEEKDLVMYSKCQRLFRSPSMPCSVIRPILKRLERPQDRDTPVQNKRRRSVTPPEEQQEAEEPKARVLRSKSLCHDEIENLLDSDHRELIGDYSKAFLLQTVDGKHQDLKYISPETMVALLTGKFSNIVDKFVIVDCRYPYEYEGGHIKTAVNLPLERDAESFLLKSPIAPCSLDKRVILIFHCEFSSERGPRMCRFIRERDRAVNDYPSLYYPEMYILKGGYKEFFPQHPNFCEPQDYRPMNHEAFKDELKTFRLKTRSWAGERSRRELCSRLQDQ
Assay: Cdc25B fluorometric phosphatase assay (OMFP substrate)
Type: biochemical
Experimental: […]. Then, 25 μL of stop solution was added. Fluorescence was measured at an excitation wavelength of 485 nm and an emission wavelength of 530 nm using a fluorescence microplate reader (BioTek Instruments, Inc., Winooski, VT, USA). Menadione is a quinone-type inhibitor of Cdc25s that was used as a positive control here.

## CC(C)=CC[C@@H](O)C1=CC(=O)c2c(O)ccc(O)c2C1=O [Shikonin]
  IC50: 5.82 ± 0.37 µM
